pIC50: −log10 of the molar value.
Biological target: T1, JAK3 (Homo sapiens, UniProt P52333)
T1 construct: purchased Life technology
T1 sequence (P52333 1-1124): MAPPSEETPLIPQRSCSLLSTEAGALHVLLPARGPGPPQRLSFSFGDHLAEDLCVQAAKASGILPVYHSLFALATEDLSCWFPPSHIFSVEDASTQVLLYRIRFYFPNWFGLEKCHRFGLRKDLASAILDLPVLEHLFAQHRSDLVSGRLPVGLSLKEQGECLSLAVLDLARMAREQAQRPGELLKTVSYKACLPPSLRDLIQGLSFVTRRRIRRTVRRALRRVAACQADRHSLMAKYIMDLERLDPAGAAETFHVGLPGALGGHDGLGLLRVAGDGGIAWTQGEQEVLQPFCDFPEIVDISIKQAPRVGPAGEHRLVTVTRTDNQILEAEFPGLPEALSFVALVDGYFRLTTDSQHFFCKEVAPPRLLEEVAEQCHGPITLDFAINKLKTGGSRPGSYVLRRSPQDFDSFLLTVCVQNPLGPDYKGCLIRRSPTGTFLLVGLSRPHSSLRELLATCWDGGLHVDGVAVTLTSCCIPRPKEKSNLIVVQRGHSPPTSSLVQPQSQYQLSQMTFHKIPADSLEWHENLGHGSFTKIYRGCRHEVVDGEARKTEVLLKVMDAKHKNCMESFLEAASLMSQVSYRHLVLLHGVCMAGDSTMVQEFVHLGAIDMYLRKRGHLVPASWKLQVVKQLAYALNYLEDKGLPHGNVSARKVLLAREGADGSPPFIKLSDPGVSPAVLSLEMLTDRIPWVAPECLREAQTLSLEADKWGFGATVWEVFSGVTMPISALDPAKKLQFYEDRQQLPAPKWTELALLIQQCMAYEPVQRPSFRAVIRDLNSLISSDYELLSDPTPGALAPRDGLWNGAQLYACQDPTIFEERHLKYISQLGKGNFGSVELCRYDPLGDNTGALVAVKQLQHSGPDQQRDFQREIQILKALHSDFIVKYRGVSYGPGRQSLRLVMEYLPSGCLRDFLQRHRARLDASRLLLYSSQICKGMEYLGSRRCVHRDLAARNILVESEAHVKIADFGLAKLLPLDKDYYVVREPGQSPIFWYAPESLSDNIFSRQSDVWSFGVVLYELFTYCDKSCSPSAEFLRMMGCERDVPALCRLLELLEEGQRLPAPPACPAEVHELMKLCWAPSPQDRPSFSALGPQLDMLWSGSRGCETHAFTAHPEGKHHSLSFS
Test: In vitro activity test of JAK3 kinase (LANCE Ultra TR-FRET);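 further: recombinant human JAK3 phosphorylating ULight-JAK-1(Tyr1023) peptide at 4 µM ATP, with 1% DMSO, detected by Eu-anti-phosphotyrosine TR-FRET on Envision and converted to percent inhibition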
Format: biochemical
Conditions: 4 uM ATP, 90 min

pIC50: 6.00 to 7.00
Substance: N-(cyanomethyl)-1-(methyl(1H-pyrrole[2,3-b]pyridyl-4-)amino)piperidyl-3-formamide [WX14]

— patent US10617690B2 (priority 2015, dated 2020)
